This note sets out measurements from PubChem BioAssay (Tox21).

Structures are written as SMILES. Several values for one entry are separate records, joined by “and”; a condition that tells them apart may be missing. Identical values can stand only once. This is a selection; strong and weak results do not stand in their true shares. Inconclusive results are not listed. Activity calls are given as the source filed them. Calls come from the whole dose curve; as a rule, active = well fitted cell-killing curve with a large enough effect in the repeat runs; inconclusive = weak or mixed curves; inactive = flat fitted curve, though single readings scatter.
% is set by controls: 0 for no effect and ±100 for the full control effect.

One assay can be described thus: qHTS assay to identify small molecule antagonists of the TGF-beta/Smad signaling pathway - cell viability counter screen (AID 1346824). Note: nearly all actives have a fitted effect of over 50% in size. As to conditions: SBE-bla HEK293T viability, CellTiter-Glo luminescence; at 35.3 µM (top of the series). An excerpt:
U.S. Tox21 Program National Center for Advancing Translational Sciences [NCATS] NIH Chemical Genomics Center [NCGC] U.S. Environmental Protection Agency [EPA] National Institutes of Environmental Health Sciences [NIEHS] National Toxicology Program [NTP] U.S. Food and Drug Administration [FDA] Tox21 Assay Overview: Transforming growth factor beta (TGF-beta) superfamily consists of a large number of structurally related dimeric proteins that act as hormones or local mediators in regulating a wide range of biological functions. This superfamily includes TGF-betas themselves, the bone morphogenetic proteins (BMPs) and the activins. These ligands induce oligomerization of serine/threonine receptor kinases and phosphorylate the cytoplasmic signaling molecules of Smad protein family. CellSensor SBE-bla HEK 293T cell line (Life Technologies, Carlsbad, CA), responsive to TGF-beta was used to screen Tox21 10K compound library for identification of agonists/antagonists of the Smad signaling pathway. This cell line contains a beta-lactamase reporter gene under control of the Smad binding element (SBE) stably integrated into HEK 293T cells. Also cytotoxicity of the compounds was tested in parallel by measuring the cell viability using CellTiter-Glo assay system in the same wells.
Tox21 Assay Protocol Summary: SBE-bla HEK 293T cells were dispensed at 4,000/well in 5 uL of assay medium into black wall/clear-bottom 1536-well plates using a Multidrop Combi (ThermoFisher Scientific, Waltham, MA) dispenser. After the assay plates were incubated at 37 C and 5% CO2 for an overnight, 23 nL of compounds dissolved in DMSO, positive controls or DMSO only was transferred to the assay plate by a Pintool station (Kalypsys, San Diego, CA). Compound transfer was followed by the addition of 1 uL of 0.25 ng/mL TGF-beta1 or assay buffer using two separate tips of Flying Reagent Dispenser (FRD, Aurora Discovery, San Diego, CA). The assay plates were incubated at 37 C and 5% CO2 for 5 hr. One uL of LiveBLAzer B/G FRET substrate (Life Technologies) was added using a Flying Reagent Dispenser (FRD, Aurora Discovery, San Diego, CA) and the plates were incubated at room temperature for 2 hr. Fluorescence intensity (405 nm excitation, 460 nm and 530 nm emissions) was measured using an Envision plate reader (PerkinElmer, Shelton, CT). For cytotoxicity read, 4 uL of CellTiter-Glo reagent (Promega Corporation, Madison, WI) was added to each well of the assay plates using FRD. After 30 min incubation at room temperature, the luminescence intensity was measured using ViewLux plate reader (PerkinElmer).
A general note: Quantitative high-throughput screening tests each substance at several concentrations.
Turning to `NC(=O)Nc1ccc([As](=O)(O)O)cc1`, the viability change, negative = cytotoxic is inactive: -7.33%.

Staying with this assay, now noted: SBE-bla HEK293T viability, CellTiter-Glo luminescence; at 76.8 µM (top of the series).
Consider `NC(=O)Nc1ccc([As](=O)(O)O)cc1`, for which the viability change, negative = cytotoxic is inactive: -21.7%.

The assay is the same for the next values; noted with them: SBE-bla HEK293T viability, CellTiter-Glo luminescence; at 76.8 µM (top of the series) unless noted.
With `CC(C)CCCCCCCOP(OCCCCCCCC(C)C)Oc1ccccc1`, the viability change, negative = cytotoxic was inactive: -13.9%.

Consider `O=[N+]([O-])c1ccc([N+](=O)[O-])cc1`, for which the viability change, negative = cytotoxic is inactive: 2.77%.

Take `COC(=O)Cl`: the viability change, negative = cytotoxic is inactive: 8.46%.

In the case of `O=C(Cl)OCCOC(=O)Cl`, the viability change, negative = cytotoxic is inactive: -1.37%.

For `O=[N+]([O-])c1ccc(S(=O)(=O)O)c([N+](=O)[O-])c1`, the viability change, negative = cytotoxic was inactive: -0.321%.

Take `CN(N=O)C(=N)N[N+](=O)[O-]`: the viability change, negative = cytotoxic is inactive: 7.75%.

Consider `COP(=S)(Cl)OC`, for which the viability change, negative = cytotoxic was inactive: 2.56%.

With `CN(C(=O)Cc1cccc2occc12)[C@H]1CC[C@@]2(CCCO2)C[C@@H]1N1CCCC1`, the viability change, negative = cytotoxic was inactive: 0.423%.

On to `O=P(Cl)(Cl)c1ccccc1`, for which the viability change, negative = cytotoxic was inactive: 5.03%.

Turning to `Cc1cc([N+](=O)[O-])cc([N+](=O)[O-])c1O`, the viability change, negative = cytotoxic was inactive: -16.5%.

Consider `CCOC(=O)Cl`, for which the viability change, negative = cytotoxic is inactive: 0.155%.

Consider `O=C(Cl)Oc1ccccc1`, for which the viability change, negative = cytotoxic is inactive: 0.214%.

`CCC(C)(OOC(C)(C)C)OOC(C)(C)C`: the viability change, negative = cytotoxic is inactive: -0.612% [at 15.8 µM].

`CN(C(=O)Cc1ccc(Cl)c(Cl)c1)[C@H]1CC[C@@]2(CCCO2)C[C@@H]1N1CCCC1`: the viability change, negative = cytotoxic was inactive: 0.139% [at 35.3 µM].

As to `CN(C(=O)Cc1ccccc1)[C@H]1CC[C@@]2(CCCO2)C[C@@H]1N1CCCC1`, the viability change, negative = cytotoxic was inactive: 9.29% [at 35.3 µM].

Regarding `CC(C)OP(=S)(OC(C)C)SCCNS(=O)(=O)c1ccccc1`, the viability change, negative = cytotoxic was inactive: -0.552%.

As to `O=[p+]1oc2ccccc2c2ccccc21` (configuration not stated), the viability change, negative = cytotoxic is inactive: 6.25%.

In the case of `O=P(Cl)(Oc1ccccc1)Oc1ccccc1`, the viability change, negative = cytotoxic is inactive: 8.98%.

Regarding `Cc1cc([N+](=O)[O-])c(O)c([N+](=O)[O-])c1`, the viability change, negative = cytotoxic was inactive: 5.54%.

In the case of `O=[P+](Oc1ccccc1)Oc1ccccc1`, the viability change, negative = cytotoxic was inactive: -1.47%.

As for `CCCCC(CC)CO[P+](=O)OCC(CC)CCCC` (configuration not stated), the viability change, negative = cytotoxic is inactive: -10%.

With `CCCCO[P+](=O)OCCCC`, the viability change, negative = cytotoxic was inactive: -14.9% and inactive: -7.71%.

As to `ClP(Cl)c1ccccc1`, the viability change, negative = cytotoxic is inactive: 4.62%.

As for `CCNC(C)Cc1ccc2c(c1)OCO2` (configuration not stated), the viability change, negative = cytotoxic is inactive: 6.74%.

Turning to `CCOP(=S)(CC)Sc1ccccc1` (configuration not stated), the viability change, negative = cytotoxic was inactive: 14.2%.
